Measured values published in ChEMBL document CHEMBL1128826, “Heteroatom effect in the PKC inhibitory activities of perhydroazepine analogs of balanol” (Bioorg Med Chem Lett, 1995).

Target: T1, Protein kinase C epsilon type (Homo sapiens, UniProt Q02156)
T1 sequence (Q02156 whole entry): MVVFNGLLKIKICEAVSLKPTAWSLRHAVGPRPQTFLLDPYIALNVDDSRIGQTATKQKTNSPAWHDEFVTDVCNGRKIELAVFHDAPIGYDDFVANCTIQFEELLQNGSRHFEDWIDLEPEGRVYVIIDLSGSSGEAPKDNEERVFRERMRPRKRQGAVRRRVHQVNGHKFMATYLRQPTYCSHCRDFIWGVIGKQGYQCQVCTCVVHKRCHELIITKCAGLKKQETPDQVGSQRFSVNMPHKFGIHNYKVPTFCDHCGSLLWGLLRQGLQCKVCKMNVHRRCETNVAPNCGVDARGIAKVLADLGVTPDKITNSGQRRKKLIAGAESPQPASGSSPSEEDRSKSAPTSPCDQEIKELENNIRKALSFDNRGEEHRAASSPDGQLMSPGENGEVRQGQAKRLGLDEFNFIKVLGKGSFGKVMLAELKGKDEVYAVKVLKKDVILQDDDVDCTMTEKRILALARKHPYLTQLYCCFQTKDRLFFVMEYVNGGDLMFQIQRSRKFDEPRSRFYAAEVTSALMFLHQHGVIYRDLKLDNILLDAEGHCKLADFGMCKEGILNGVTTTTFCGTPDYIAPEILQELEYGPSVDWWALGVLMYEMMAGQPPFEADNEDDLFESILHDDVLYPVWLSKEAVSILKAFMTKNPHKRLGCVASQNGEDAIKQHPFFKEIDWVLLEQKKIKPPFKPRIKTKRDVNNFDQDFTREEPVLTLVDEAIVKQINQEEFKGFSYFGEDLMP
Assay: Inhibition of human Protein kinase C epsilon

O=C(N[C@H]1CNCCC[C@H]1OC(=O)c1cc(O)c(C(=O)c2c(O)cccc2C(=O)O)c(O)c1)c1ccc(O)cc1 (racemic)
IC50: 49 nM
